# Measurements: patent US20180177729A1, “G PROTEIN-COUPLED RECEPTORS INCORPORATED INTO REHYDRATED POLYMER VESICLES RETAIN FUNCTIONALITY” (UNIVERSITY OF SOUTHERN CALIFORNIA, priority 2016, published 2018)
# Sequences of proteins named here, by UniProt entry; tags and fusion partners are left off.
# UniProt P08908, whole entry: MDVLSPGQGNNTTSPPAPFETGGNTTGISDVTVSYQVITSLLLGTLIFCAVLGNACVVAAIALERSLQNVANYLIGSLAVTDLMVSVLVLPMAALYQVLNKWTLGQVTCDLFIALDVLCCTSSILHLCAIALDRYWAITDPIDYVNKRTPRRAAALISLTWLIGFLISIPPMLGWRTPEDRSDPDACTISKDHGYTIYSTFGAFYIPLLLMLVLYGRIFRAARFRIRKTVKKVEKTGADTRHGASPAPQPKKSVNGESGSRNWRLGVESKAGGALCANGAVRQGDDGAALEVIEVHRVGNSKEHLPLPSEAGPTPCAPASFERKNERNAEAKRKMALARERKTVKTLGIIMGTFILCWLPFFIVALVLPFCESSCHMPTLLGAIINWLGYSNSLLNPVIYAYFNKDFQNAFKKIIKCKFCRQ
# Columns and labels:
# 5-HT1AR = molecular target: T1, 5-HT1AR (Homo sapiens, UniProt P08908); experiment: 5-HT1AR membrane fragments diluted in solutions, lyophilized 24 hours, rehydrated and assessed for protein function; type: biochemical; conditions: for Rate (single exponential fit): diluted in 200 mM sucrose in PBS, after lyophilization; for protein function after lyophilization: 24 hours of lyophilization, rehydrated
# T1 construct: purchased Perkin Elmer
# Method: After 24 hours of lyophilization, samples were rehydrated and assessed for protein function.
# Prepared and settled pGUPs were transferred to a flat bottom 96-well plate. Agonist 8-OH-DPAT was added to each well to a final concentration of 150 nM immediately prior to reading fluorescence. Control pGUPs were run without the addition of the agonist. Rehydration buffer with and without agonist and protein were read as positive and negative controls. Samples were read at physiological temperature (37° C.) every 5 minutes for twelve hours to ensure complete activity assessment. Fluorescence reading of BODIPY-GTPγS unquenching was done on a Biotek Synergy H4 Microplate Reader equipped with a xenon flash lamp. Excitation was set to 485/20 nm and emission at 528/20 nm at a read height of 7 mm.
# Fluorescence microtiter results were collect and analyzed using JMP. Six separate observations were fitted and averaged to obtain a single curve with standard error mean values. Rates were fitted to the JMP Mechanistic Growth curve using a single exponential. Statistical analysis using a Tukey-Kramer pairwise comparison of means were done using JMP with a 95% confidence interval (α=0.05).
# [1] = molecular target: T2, human serotonin 5-HT1A receptor (5-HT1AR) (Homo sapiens, UniProt P08908); experiment: 5-HT1A activity assay via microplate reader (BODIPY-GTPγS unquenching) in pGUPs; type: biochemical
# T2 construct: purchased Perkin Elmer
Compound,Rate (single exponential fit) (5-HT1AR; agonist-incubated (8-OH-DPAT)),Rate (single exponential fit) (5-HT1AR; control protein (no agonist)),protein function after lyophilization (5-HT1AR; diluted in Milli Q water),protein function after lyophilization (5-HT1AR; diluted in PBS (pH 7.4)),"Rate (protein functional rate) ([1]; 14 μM antagonist in pGUPs, agonist 8-OH-DPAT, 37° C., 12 hours) [min⁻¹]",Effect on protein functional rate ([1]; antagonist in pGUPs)
"5-HT1AR membrane fragments: Membrane fragments containing 5-HT1AR (Perkin Elmer), bound to spiperone and diluted in water, PBS or sucrose buffer",7.18±0.12 ×10^−2 min^−1,7.23±0.12 ×10^−2 min^−1,did not retain its function,did not retain its function,–,–
"CSc1ccc2c(c1)C(N1CCN(C)CC1)Cc1ccccc1S2.O=C(O)/C=C\C(=O)O (stereo not drawn) [Methiothepin, methiothepin maleate]",–,–,–,–,0.085,reduce the protein functional rate
